Experimental data reported in patent publication US10543213B2, “Treatment of relapsed and/or refractory solid tumors and non-hodgkin's lymphomas” (Celgene Quanticel Research, Inc., priority 2016, dated 2020).

Assay: 4-week toxicity study with 4-week recovery in mice

COc1ccc(-c2c(-c3ccc(C#N)c(F)c3)nc(N3CCC(N)CC3)n(C)c2=O)cc1F [Compound A, 4-[2-(4-amino-piperidin-1-yl)-5-(3-fluoro-4-methoxy-phenyl)-1-methyl-6-oxo-1,6-dihydro-pyrimidin-4-yl]-2-fluoro-benzonitrile]
platelet and reticulocyte counts (45 mg base/kg/dose): Marked decreases | animals sacrificed in moribund condition (45 mg base/kg/dose, 4 males and 1 female, TK subgroup, as early as Day 7): Five | platelet and absolute reticulocytes (5 and 15 mg base/kg/dose): Mildly to moderately lower | medullary space of the sternum (15 and 45 mg base/kg/dose): Minimal to marked fibrosis | periosteal, endosteal, and trabecular lamellar bone (hyperostosis) (15 and 45 mg base/kg/dose): Minimal to moderate increase | marginal zone lymphocytes in the spleen (males 15, females 25, males and females 45 mg base/kg/dose): Minimal to marked depletion | accumulation after multiple dosing (mice): No accumulation | red cell mass (RBC count, hemoglobin, and hematocrit) (≥5 mg base/kg/dose): Mildly to moderately lower | bone marrow of the sternum (≥15 mg base/kg/dose): Minimal to moderate myeloid hyperplasia | clinical observations (≥15 mg base/kg/dose): Rough haircoat
